Experimental data: patent US9995734B2, “Human T cell line assay for evaluating the immunologic identity of glatiramer acetate preparations” (Mylan Inc., priority 2013, dated 2018)

Test system: Donor 3 T-cell cultures
Conditions: Donor 3 cultures; 100 μg/mL

Substance: L-glutamic acid polymer with L-alanine, L-lysine and L-tyrosine, acetate (salt) [GA]
- loss of cells following addition of GA: Significant loss of cells
